The target of this experiment is Kappa-type opioid receptor (Cavia porcellus, UniProt P41144). Put plainly: Displacement of [3H]-diprenorphine from guinea pig kappa opioid receptor expressed in CHOK1 cell membranes. The following applies: cho-k1. For orientation: Displacement assays read how much labelled ligand stays bound in the presence of the test substance.

Sequences of proteins named here, by UniProt entry; tags and fusion partners are left off. A change or cut given only in a name is not applied to a line headed by its entry.
UniProt P41144: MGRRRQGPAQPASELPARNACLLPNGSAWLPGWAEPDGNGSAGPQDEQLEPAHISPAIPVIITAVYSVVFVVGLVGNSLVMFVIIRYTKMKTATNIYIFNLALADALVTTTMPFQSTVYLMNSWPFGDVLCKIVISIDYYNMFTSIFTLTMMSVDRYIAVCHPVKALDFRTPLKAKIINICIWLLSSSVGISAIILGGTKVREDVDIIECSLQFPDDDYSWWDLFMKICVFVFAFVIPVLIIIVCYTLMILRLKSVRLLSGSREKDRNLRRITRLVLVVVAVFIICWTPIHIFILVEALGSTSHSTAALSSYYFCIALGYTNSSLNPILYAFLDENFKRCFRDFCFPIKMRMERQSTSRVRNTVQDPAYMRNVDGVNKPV

For orientation: pKi means −log10 of the Ki, conventionally taken in molar units.

For the compound `NC(=O)c1cccc([C@H]2C[C@H]3CC[C@@H](C2)N3CCN(CCc2ccccc2)C(=O)CO)c1`, the pKi was 7 to 10.5.
